According to US11524940B1, “Inhibitors of cysteine proteases and methods of use thereof” (priority 2020, dated 2022):
pEC50, pIC50: −log10 of the molar value.

Amino acid sequences for entries named in this document (tags omitted). Residues count along the entry.
UniProt P0C6X1, 2966-3267 limits assumed: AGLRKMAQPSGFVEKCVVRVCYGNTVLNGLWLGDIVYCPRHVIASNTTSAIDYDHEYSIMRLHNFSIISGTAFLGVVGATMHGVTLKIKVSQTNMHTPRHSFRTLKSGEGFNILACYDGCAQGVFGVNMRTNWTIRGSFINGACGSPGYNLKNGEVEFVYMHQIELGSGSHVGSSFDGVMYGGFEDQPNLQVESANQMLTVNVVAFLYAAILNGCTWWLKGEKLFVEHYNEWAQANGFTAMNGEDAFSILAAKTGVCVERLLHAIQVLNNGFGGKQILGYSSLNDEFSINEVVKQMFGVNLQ

Experiments:
229E Mpro = 229E Mpro (Human coronavirus 229E (HCoV-229E), UniProt P0C6X1); test: 229E Mpro activity; assay type: biochemical
SARS-CoV2 Mpro = SARS-CoV2 Mpro (Severe acute respiratory syndrome coronavirus 2 (2019-nCoV) (SARS-CoV-2), UniProt P0DTD1); test: COVID-19 (SARS-CoV2) Mpro enzymatic assay; assay type: biochemical

Row | Compound | pEC50 (229E Mpro) | pIC50 (SARS-CoV2 Mpro)
1 | N#C[C@H](C[C@@H]1CCNC1=O)NC(=O)[C@H](CC1CC1)NC(=O)c1nc2ccncc2[nH]1 [Compound 129, N-[(1S)-2-[[(1S)-1-cyano-2-[(3S)-2-oxopyrrolidin-3-yl]ethyl]amino]-1-(cyclopropylmethyl)-2-oxo-ethyl]-3H-imidazo[4,5-c]pyridine-2-carboxamide] | 5.00 to 5.70 | –
2 | COc1cccc2nc(C(=O)N[C@@H](CC3CC3)C(=O)N[C@H](C#N)C[C@@H]3CCNC3=O)[nH]c12 [Compound 145, N-[(1S)-2-[[(1S)-1-cyano-2-[(3S)-2-oxopyrrolidin-3-yl]ethyl]amino]-1-(cyclopropylmethyl)-2-oxo-ethyl]-7-methoxy-1H-benzimidazole-2-carboxamide] | – | > 5.70
